The numbers were not newly measured in PMC9046186, “A distinctive ligand recognition mechanism by the human vasoactive intestinal polypeptide receptor 2” (Nature Communications, 2022), which cites them from elsewhere.

This data set has as its target T1, PAC1R (Homo sapiens, UniProt P41586).
T1 construct: expressed in transfected cells; host or cells: CHO-K1
T1 sequence (P41586 21-468): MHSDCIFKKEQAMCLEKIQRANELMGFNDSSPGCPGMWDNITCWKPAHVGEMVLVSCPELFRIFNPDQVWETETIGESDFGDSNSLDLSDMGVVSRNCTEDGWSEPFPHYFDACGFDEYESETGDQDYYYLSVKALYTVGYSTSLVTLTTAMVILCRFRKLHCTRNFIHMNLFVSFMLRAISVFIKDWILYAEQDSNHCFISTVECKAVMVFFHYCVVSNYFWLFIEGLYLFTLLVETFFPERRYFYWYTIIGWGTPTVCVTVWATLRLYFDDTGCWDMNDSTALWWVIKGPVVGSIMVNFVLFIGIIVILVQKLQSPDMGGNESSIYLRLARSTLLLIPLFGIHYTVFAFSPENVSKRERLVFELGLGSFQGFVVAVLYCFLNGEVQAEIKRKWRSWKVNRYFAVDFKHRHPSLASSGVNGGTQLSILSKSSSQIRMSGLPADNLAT
As to conditions: more potent than VIP; introduction, Fig. 1a, b; no reference given.

For “pituitary adenylate cyclase-activating polypeptide [PACAP38]”, the “potency relative to VIP at PAC1R” value is recorded as 50 to 400 fold.
